Assay results published in patent US20050054673A1, “Combination of phenylcarboxylic acid amides with beta-adrenoreceptor blockers and their use for the treatment of atrial arrhythmias” (Aventis Pharma Deutschland GmbH, priority 2003, published 2005).

The chains behind the UniProt entries cited, without tags or fusion partners.
UniProt P22460, whole entry: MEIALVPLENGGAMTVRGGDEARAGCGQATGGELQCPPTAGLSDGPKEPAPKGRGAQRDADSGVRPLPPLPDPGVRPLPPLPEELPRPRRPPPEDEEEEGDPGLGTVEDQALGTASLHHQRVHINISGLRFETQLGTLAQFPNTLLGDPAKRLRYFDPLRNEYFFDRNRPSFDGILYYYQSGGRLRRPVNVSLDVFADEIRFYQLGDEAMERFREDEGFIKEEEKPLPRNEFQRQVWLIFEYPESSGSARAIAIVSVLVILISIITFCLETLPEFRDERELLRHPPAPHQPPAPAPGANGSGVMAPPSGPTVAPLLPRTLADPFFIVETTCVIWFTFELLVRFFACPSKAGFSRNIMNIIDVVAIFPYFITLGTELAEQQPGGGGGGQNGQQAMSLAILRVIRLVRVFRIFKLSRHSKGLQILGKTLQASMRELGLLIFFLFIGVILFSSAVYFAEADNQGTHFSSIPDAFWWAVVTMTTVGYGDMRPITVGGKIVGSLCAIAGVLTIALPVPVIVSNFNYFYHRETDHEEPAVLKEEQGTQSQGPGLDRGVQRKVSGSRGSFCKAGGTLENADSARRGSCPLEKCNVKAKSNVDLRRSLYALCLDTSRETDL

Target: T1, Kv1.5 channels from humans (Homo sapiens, UniProt P22460)
T1 construct: expressed in transfected cells; host or cells: Xenopus laevis oocytes injected with in vitro synthesized RNA
Test: Activity on the Kv1.5 channel, two microelectrode voltage clamp in Xenopus oocytes
Assay type: cell-based
Conditions: human Kv1.5 expressed in Xenopus oocytes, room temperature, Hill equation
Protocol: Determination of the activity on the Kv1.5 channel
These experiments were carried out at room temperature.

| pIC50 | Compound |
| --- | --- |
| 5.33 | COc1ccc(CC(=O)NCc2ccccc2-c2ccccc2C(=O)NCCc2cccnc2)cc1 [Example 1, 2′-{[2-(4-Methoxyphenyl)acetylamino]methyl}biphenyl-2-carboxylic acid (2-pyridin-3-ylethyl)amide] |
| 5.85 | COc1ccc(CC(=O)NCc2ccccc2-c2ccccc2C(=O)NCc2ccc(F)cc2F)cc1 [Example 3, 2′-{[2-(4-Methoxyphenyl)acetylamino]methyl}biphenyl-2-carboxylic acid 2,4-difluorobenzylamide] |
| 6.00 | CCCCS(=O)(=O)Nc1ccc(C)cc1C(=O)NC(c1cccnc1)C1CC1 (stereo not shown) [Example 6, 2-(Butyl-1-sulfonylamino)-N-(cyclopropylpyridin-3-ylmethyl)-5-methylbenzamide] |
| 5.96 | CC[C@H](NC(=O)c1cc(F)ccc1NS(=O)(=O)c1cccc2cccnc12)c1ccccc1 [Example 7, (S)-5-Fluoro-2-(quinoline-8-sulfonylamino)-N-(1-phenyl-propyl)benzamide] |

pIC50: −log10 of the molar value.
